Experiments:
[1] = biological target: uncleaved HPIV3 F (K108G) (Human parainfluenza 3 virus, UniProt P06828, K108G); assay type: cell-based
HPIV3 = details: 24 h
Vero cells = details: 24 h
[2] = assay type: physicochemical; details: pH 7.4

Amino acid sequences for entries named in this document (tags omitted). Residues count along the entry.
UniProt P06828, 19-539 K108G: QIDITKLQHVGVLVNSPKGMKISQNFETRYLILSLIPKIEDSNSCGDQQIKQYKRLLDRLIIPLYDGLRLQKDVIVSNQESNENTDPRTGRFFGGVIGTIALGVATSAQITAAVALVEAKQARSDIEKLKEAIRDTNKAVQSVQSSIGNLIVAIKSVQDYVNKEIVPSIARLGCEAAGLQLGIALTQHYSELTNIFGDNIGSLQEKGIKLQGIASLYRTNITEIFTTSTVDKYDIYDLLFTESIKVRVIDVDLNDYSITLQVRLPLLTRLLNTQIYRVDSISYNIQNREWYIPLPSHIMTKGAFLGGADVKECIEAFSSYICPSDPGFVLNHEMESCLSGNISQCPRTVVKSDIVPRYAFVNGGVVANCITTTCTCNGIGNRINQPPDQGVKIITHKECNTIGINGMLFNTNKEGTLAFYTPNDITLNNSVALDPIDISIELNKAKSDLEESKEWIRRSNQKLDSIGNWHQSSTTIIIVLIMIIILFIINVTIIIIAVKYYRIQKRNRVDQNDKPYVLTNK

SMILES: CC[C@H](C)[C@H](NC(=O)[C@H](CO)NC(=O)[C@H](CC(=O)O)NC(=O)[C@H](CC(C)C)NC(=O)[C@H](CCCCN)NC(=O)CNC(=O)[C@H](CC(N)=O)NC(=O)[C@H](CO)NC(=O)[C@H](CCCNC(=N)N)NC(=O)[C@H](CCCNC(=N)N)NC(=O)[C@@H](NC(=O)[C@H](Cc1c[nH]c2ccccc12)NC(=O)[C@H](CCC(=O)O)NC(=O)[C@H](CCCCN)NC(=O)[C@H](CO)NC(=O)[C@H](CCC(=O)O)NC(=O)[C@H](CCC(=O)O)NC(=O)[C@H](CC(C)C)NC(=O)[C@H](CC(=O)O)NC(=O)[C@H](CO)NC(=O)[C@H](CCCCN)NC(=O)[C@H](C)NC(=O)[C@H](CCCCN)NC(=O)[C@H](CC(N)=O)NC(=O)[C@H](CC(C)C)NC(=O)[C@@H](NC(=O)[C@@H](NC(=O)[C@H](CO)NC(=O)[C@@H](NC(=O)[C@H](CC(=O)O)NC(=O)[C@@H](NC(=O)[C@@H]1CCCN1C(=O)[C@H](CC(=O)O)NC(=O)[C@H](CC(C)C)NC(=O)[C@H](C)NC(=O)[C@@H](NC(C)=O)C(C)C)[C@@H](C)CC)[C@@H](C)CC)[C@@H](C)CC)C(C)C)[C@@H](C)CC)C(=O)NCC(=O)N[C@@H](CO)C(=O)NCC(=O)N[C@@H](CO)C(=O)NCC(=O)N[C@@H](CS)C(N)=O [VG]
- RBCs free (released) [1]: 80%
- RBCs reversibly bound (HN-receptor engagement only) [1]: 20%
- IC50 (HPIV3): 1 nM
- IC90 (HPIV3): 280 ± 247 nM
- Cytotoxicity in monolayer culture CC50 (Vero cells): >10,000 nM
- Aggregate formation (ANS fluorescence) [2]: unable to form aggregates
